scFv variants of Ab-14 (heavy chain) against a SARS-CoV-2 spike peptide

Antigen: PDVDLGDISGINAS, a 14-residue peptide of the SARS-CoV-2 spike HR2 region.

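The starting antibody came from a phage panning campaign against this peptide. Variants in AAYL49 differ from the parent at up to three CDR positions; double and triple changes were sampled at random. The assay is AlphaSeq: two haploid yeast populations carry antibody and antigen on their surface. After mating in shaken culture at 30 °C for 16 h, diploids were selected and their barcode pairs sequenced. A regression on co-assayed BCL2-family reference pairs converts the normalised counts of each replicate to an apparent Kd. Mating was done three times.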

The variants keep the light chain, the linker and the frameworks of Ab-14 (scFv order VH, the linker GGGGSGGGGSGGGGS, VL).
VH: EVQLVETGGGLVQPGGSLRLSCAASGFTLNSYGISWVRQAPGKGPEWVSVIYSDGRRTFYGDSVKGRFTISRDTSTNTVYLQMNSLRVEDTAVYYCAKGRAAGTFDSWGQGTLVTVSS
VL: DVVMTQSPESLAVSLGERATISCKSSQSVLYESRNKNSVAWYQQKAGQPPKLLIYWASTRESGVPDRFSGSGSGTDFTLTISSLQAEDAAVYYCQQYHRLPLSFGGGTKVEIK

Substitutions are numbered in sequence along the VH above, starting at 1 (not Kabat).
Scale: log10 of Kd in nM, estimated from mating counts; low values are strong binders.
A mean of the replicates is given; it leaves out those without a signal.
"nd" means that the variant was in the library but no mating with the target was seen in that replicate; the authors take this as a sign of poor binding, and no number exists.
For reference, the parent read 0.65 as the reference entry and 4.11 (one replicate of three) as a member of this library.
Three control strains display no target. For library AAYL49, 15% of the pairings with them gave a signal, with a median of 4.06 and one signal in twenty below 2.83, so weak values seen in few replicates may be background. Also given: how often the same scFv was detected with the empty control strains, with their mean in brackets.

changes | replicates, log10 nM | mean log10 Kd (nM) | signal with controls
T28V S35N S53V | nd nd nd | nd | 0/9
Y32A V50D Y52T | nd nd nd | nd | 4/9 (3.94)
S35P G99I T104A | nd nd 4.62 | 4.62 | 2/9 (2.51)
S31Q I34V Y52E | nd nd nd | nd | 4/9 (3.80)
Y52V F59I T104A | nd nd nd | nd | 2/9 (4.19)
N30D G99R | 0.87 1.03 0.80 | 0.90 | 1/9 (3.20)
G55M Y60W A102Q | 4.78 nd 4.44 | 4.61 | 2/9 (3.27)
I51M R57S T58E | nd nd nd | nd | 0/9
N30C F59V T104W | nd 3.22 nd | 3.22 | 2/9 (3.32)
Y52H F59C D62L | nd 4.46 5.51 | 4.98 | 4/9 (4.89)
V64Y R100Q | 0.28 0.63 0.59 | 0.50 | 0/9
V50K I51H G55C | nd nd nd | nd | 0/9
L29F Y32H | 3.34 nd 2.57 | 2.95 | 4/9 (3.62)
F27L D54A G61I | nd nd nd | nd | 0/9
S63T G99T A101L | 5.95 4.61 nd | 5.28 | 3/9 (3.96)
I51C V64E T104Y | 3.14 nd nd | 3.14 | 0/9
F27N L29K Y32Q | nd 4.58 nd | 4.58 | 3/9 (3.78)
V50E D62P S63N | nd nd 2.26 | 2.26 | 0/9
Y32G I34M | nd 3.71 nd | 3.71 | 1/9 (4.56)
G33F G99R D106Y | 3.70 4.62 nd | 4.16 | 0/9
Y32I G33M S53G | nd nd nd | nd | 0/9
S35P S53L G99E | nd nd nd | nd | 2/9 (3.29)
I51W D62R T104Y | 4.24 nd nd | 4.24 | 1/9 (3.35)
T28C R57P | nd nd nd | nd | 0/9
I51L S53C S107D | nd nd nd | nd | 0/9
R56F T58D A102F | 3.75 5.58 4.68 | 4.67 | 4/9 (4.56)
L29H S63A A102C | nd nd 6.03 | 6.03 | 2/9 (4.31)
G33H K65P G99C | nd nd nd | nd | 1/9 (3.69)
F27A F59G D106G | nd nd nd | nd | 0/9
G33E I34A | nd nd nd | nd | 1/9 (3.45)
I51M R100Q S107R | 2.21 2.21 2.50 | 2.31 | 2/9 (4.21)
R57Q T58S D106T | nd nd 2.60 | 2.60 | 0/9
L29I S53I G55W | nd 3.85 nd | 3.85 | 1/9 (2.87)
Y60S R100S F105Y | nd nd nd | nd | 0/9
T58V F105D D106W | nd nd nd | nd | 0/9
S63A A101S G103V | nd 3.75 nd | 3.75 | 2/9 (3.77)
F27P G33K A102P | nd nd nd | nd | 1/9 (3.67)
I51T T58W F105Y | nd nd nd | nd | 2/9 (3.82)
S31R S53G K65W | 5.22 nd nd | 5.22 | 2/9 (4.43)
D54A A102K | nd nd nd | nd | 1/9 (3.00)
T28Y V50C Y52P | nd 4.99 3.75 | 4.37 | 1/9 (3.53)
S35P Y52E S63R | 5.78 4.27 nd | 5.03 | 4/9 (4.90)
S53C G55K K65Q | nd 3.36 nd | 3.36 | 1/9 (4.86)
F27H V64W S107F | nd nd nd | nd | 0/9
L29D G33W V64A | 3.09 3.24 3.28 | 3.20 | 6/9 (4.17)
G55Y T58P G103Y | nd nd nd | nd | 5/9 (4.65)
N30H G61K F105W | nd nd nd | nd | 1/9 (2.60)
I34S G103I D106S | 2.43 nd 2.23 | 2.33 | 0/9
N30H R56C D62C | nd nd nd | nd | 1/9 (3.37)
D54Q G61T S107D | nd nd nd | nd | 0/9
F27V Y32N K65P | 3.26 nd 4.43 | 3.84 | 0/9
L29R I51V | nd 3.50 nd | 3.50 | 0/9

For reference, 8 entries of the list once more:

changes | replicates, log10 nM | mean log10 Kd (nM) | signal with controls
I51M R57S T58E | nd nd nd | nd | 0/9
L29F Y32H | 3.34 nd 2.57 | 2.95 | 4/9 (3.62)
T28V S35N S53V | nd nd nd | nd | 0/9
G33F G99R D106Y | 3.70 4.62 nd | 4.16 | 0/9
N30H G61K F105W | nd nd nd | nd | 1/9 (2.60)
L29D G33W V64A | 3.09 3.24 3.28 | 3.20 | 6/9 (4.17)
L29R I51V | nd 3.50 nd | 3.50 | 0/9
R57Q T58S D106T | nd nd 2.60 | 2.60 | 0/9

The measurements come from Engelhart et al. 2022 (doi:10.1038/s41597-022-01779-4) through the FLAb antibody collection.